Test results from ChEMBL document CHEMBL1145831, “A convergent approach to cryptophycin 52 analogues: synthesis and biological evaluation of a novel series of fragment a epoxides and chlorohydrins” (J Med Chem, 2003).

Columns and labels:
Mus musculus [1] = species on record: Mus musculus
Mus musculus [2] = species on record: Mus musculus; remark: listed apart in the source
Mus musculus [3] = species on record: Mus musculus; remark: listed apart in the source
Mus musculus [4] = species on record: Mus musculus; remark: listed apart in the source
Mus musculus [5] = species on record: Mus musculus; remark: listed apart in the source
Mus musculus [6] = species on record: Mus musculus; remark: listed apart in the source
Mus musculus [7] = species on record: Mus musculus; remark: listed apart in the source
Mus musculus [8] = species on record: Mus musculus; remark: listed apart in the source
Mus musculus [9] = species on record: Mus musculus; remark: listed apart in the source
Mus musculus [10] = species on record: Mus musculus; remark: listed apart in the source
Mus musculus [11] = species on record: Mus musculus; remark: listed apart in the source

COc1ccc(C[C@H]2NC(=O)/C=C/C[C@@H]([C@H](C)[C@@H](O)[C@@H](Cl)c3cccc(C)c3)OC(=O)[C@H](CC(C)C)OC(=O)C(C)(C)CNC2=O)cc1Cl
Log kill (Mus musculus [1]): 1.5

COc1ccc(C[C@H]2NC(=O)/C=C/C[C@@H]([C@H](C)[C@H]3O[C@@H]3c3ccc(CO)cc3)OC(=O)[C@H](CC(C)C)OC(=O)C(C)(C)CNC2=O)cc1Cl
Log kill (Mus musculus [2]): 2

COc1ccc(C[C@H]2NC(=O)/C=C/C[C@@H]([C@H](C)[C@@H](O)[C@@H](Cl)c3ccc(COC(=O)CN)cc3)OC(=O)[C@H](CC(C)C)OC(=O)C(C)(C)CNC2=O)cc1Cl.Cl
Log kill (Mus musculus [3]): 3.7
Log kill (Mus musculus [4]): 3.6

COc1ccc(C[C@H]2NC(=O)/C=C/C[C@@H]([C@H](C)[C@H]3O[C@@H]3c3ccccc3)OC(=O)[C@H](CC(C)C)OC(=O)C(C)(C)CNC2=O)cc1Cl [CRYPTOPHYCIN 52]
Log kill (Mus musculus [5]): 1.9

COc1ccc(C[C@H]2NC(=O)/C=C/C[C@@H]([C@H](C)[C@@H](O)[C@@H](Cl)c3ccc(CN4CCNCC4)cc3)OC(=O)[C@H](CC(C)C)OC(=O)C(C)(C)CNC2=O)cc1Cl.Cl.Cl
Log kill (Mus musculus [6]): 4.7
Log kill (Mus musculus [7]): 0.8
Log kill (Mus musculus [8]): 4.7

COc1ccc(C[C@H]2NC(=O)/C=C/C[C@@H]([C@H](C)[C@@H](O)[C@@H](Cl)c3ccccc3)OC(=O)[C@H](CC(C)C)OC(=O)C(C)(C)CNC2=O)cc1Cl
Log kill (Mus musculus [9]): > 4.5
Log kill (Mus musculus [10]): > 4.5
Log kill (Mus musculus [11]): > 4.5
